The values below come from US20140360376A1, “RECOVERY OF HIGHER ALCOHOLS FROM DILUTE AQUEOUS SOLUTIONS” (GEVO, INC., priority 2007, published 2014).

The data set in a line: Enrichment/extraction of i-BuOH from aqueous solution by contact with tri-butyl phosphate. The conditions noted are these: 25° C., equilibrium. In kind it is physicochemical.

SMILES strings stand for the structures. Where “and” joins values, the source holds several entries; their conditions need not be identical. Equal entries are not always repeated.

Take `CCCCOP(=O)(OCCCC)OCCCC`: the “TBP Wt % in heavy phase” value was 0.016 Wt % and 0.023 Wt % and 0.024 Wt %.
